Here are results for seven compounds from US12458581B2, “Carboxylic acid loaded salt carrier and the method for producing thereof” (priority 2021, dated 2025).

A short description of series [1]: pH measurement of 0.1 M aqueous solutions. It is filed as physicochemical. As to conditions: 0.1 M in millipore water, r.t., average of at least three measurements. From the text: For the pH measurements, a Seven2Go portable pH meter S2 (pH measuring-range: −2 to 20; resolution: 0.01) with an InLab Ultra Micro-ISM electrode (measuring range: pH −1 to pH 11; low temperature membrane glass type; ceramic diaphragm; reference system with Ag^+ ion trap by argenthal) as well as with an in-lab routine pH electrode (measuring range: pH 0 to pH 14; ceramic diaphragm; reference system with Ag^+ ion trap by argenthal) from Mettler-Toledo AG (Analytical, Switzerland) was used.
For sake of comparability, compounds of the same loading ratio n=2, which is 2:1 of the loaded carboxylic acid with respect to the carrier carboxylic acid, were selected for this analysis. […] The analytes were dissolved in millipore water, stirred for 5 minutes in an airtight vial to perform the pH measurements thereafter at r.t. All measurements were performed at 0.1 molar (M) concentration of the samples, which is 0.1 mol per liter (mol/L).
For sake of reliability, every result stated is the average of at least three single measurements. […] The numbers 1-73 (nr., first row) are used as an assignment for the 73 pairs, comprising the compound of invention (third row), the corresponding carrier carboxylic acid (fourth row) and the loaded carboxylic acid (fifth row), as used in the FIG. 6.

A short description of series [2]: Application as additive in liquid shaving soap. As to conditions: additive 1 or 2 % wt. From the text:
The mix was stirred with hard soap pieces remaining undissolved and placed for 50 seconds at 600 W in a microwave oven. […] The mixture was placed for 80 seconds in a microwave at 600 W. Thereafter the resulting mixture was hand-blended and filled into a jar for testing and storage.

With “calcium citrate with loaded formic acid [CaCit-HFo [2]]”, in series [1], the pH values compound turned out to be 3.77. Take “calcium citrate with loaded acetic acid [CaCit-HAc [2]]”: in series [1], the pH values compound came out at 4.77. Further, the “stability (>24 h)” value in series [2] was “yes”. `CC(=O)O.CC(=O)O.CC(=O)O.CC(=O)O.CC(=O)O.O=C1OC(C(O)CO)C([O-])=C1O.O=C1OC(C(O)CO)C([O-])=C1O.[Ca+2]` (centres unmarked) [CaAsc-HAc [5]] returned a pH values compound in series [1] of 4.15. The same measure, in the same setting: the figure for “calcium citrate with loaded acetic acid [CaCit-HAc [6]]” is 4.15; for “magnesium aspartate with loaded salicylic acid [MgAsp-Sal [2]]” it is 3.79.

Compound “magnesium glutamate with loaded lactic acid [MgGlu-HLac [2]]” had a pH values compound in series [1] of 4.00. In turn, “calcium glutamate with loaded acetic acid [CaGlu-HAc [4]]” displayed a pH values compound in series [1] of 4.35.
